Assay results: PubChem BioAssay AID2016 (NMMLSC, 2009)
Only a part is listed here, and it is no random draw. Activity calls are given as the source filed them.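 Rule for the calls: active = GFP response versus DMSO above a set limit, roughly screen mean plus 3 SD (cut at about 180% in these data); inconclusive = fewer than 70 cells counted for a yeast strain; inactive = the rest.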

experiment: modulators of MEP2-GFP levels in yeast, primary screen, S. cerevisiae, multiplex flow cytometry, MLPCN library (AID 2016);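 note: median GFP fluorescence of the barcode-gated MEP2-GFP cells per well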; settings: S. cerevisiae MEP2-GFP strain, 3 h, at 10 µM, active compounds read high, 100% = DMSO control level

Row | Compound | GFP response vs DMSO
1 | O=[N+]([O-])c1cc([N+](=O)[O-])c(OC2CCCCC2O)c([N+](=O)[O-])c1 (stereo not given) | inactive: 101%
2 | CCCCCOc1ccc(NP(C)(=O)Oc2ccc(Cl)cc2Cl)cc1 (stereo not given) | inactive: 103%
3 | CP(=O)(Nc1ccccc1)Oc1ccc(F)cc1 (stereo not given) | inactive: 103%
4 | O=C(O)c1cccc(Nc2c([N+](=O)[O-])cc([N+](=O)[O-])cc2[N+](=O)[O-])c1 | inactive: 104%
5 | CC1=NCCc2c1[nH]c1ccccc21.O=[N+]([O-])c1cc([N+](=O)[O-])c(O)c([N+](=O)[O-])c1 | inactive: 109%
6 | COc1ccccc1OP(C)(=O)Nc1cccc(Br)c1 (stereo not given) | inactive: 101%
7 | Cc1cc(C)cc(OP(C)(=O)Nc2ccc(C)cc2C)c1 (stereo not given) | inactive: 102%
8 | CCOC(=O)c1ccc(NP(C)(=O)Oc2cc(C)cc(C)c2)cc1 (stereo not given) | inactive: 112%
9 | CP(=O)(Nc1cccc(Br)c1)Oc1ccccc1 (stereo not given) | inactive: 103%
10 | Cc1cc(C)cc(OP(C)(=O)Nc2ccccn2)c1 (stereo not given) | inactive: 96.7%
11 | Cc1ccc(C)c(NP(C)(=O)Oc2ccccc2)c1 (stereo not given) | inactive: 102%
12 | O=[N+]([O-])c1cc([N+](=O)[O-])c(-n2nnc3ccccc32)c([N+](=O)[O-])c1 | inactive: 93.6%
13 | O=[N+]([O-])c1cc([N+](=O)[O-])c(-c2cnn(-c3ccccc3)c2)c([N+](=O)[O-])c1 | inactive: 88%
14 | Cc1nc2ccc3ccccc3c2s1.O=[N+]([O-])c1cc([N+](=O)[O-])c(O)c([N+](=O)[O-])c1 | inactive: 97.1%
15 | CCOC(=O)C(CC)C1=NC(C)(C)Cc2ccccc21.O=[N+]([O-])c1cc([N+](=O)[O-])c(O)c([N+](=O)[O-])c1 (stereo not given) | inactive: 98.8%
16 | O=[N+]([O-])c1cc([N+](=O)[O-])c(Nc2nnnn2CCO)c([N+](=O)[O-])c1 | inactive: 98.4%
17 | CC1=C2N=C(C=C3N=C(C(C)=C4[N-][C@@](C)([C@@H]5N=C1[C@](C)(CCC(=O)NC[C@@H](C)OP(=O)([O-])O[C@H]1[C@@H](O)[C@@H](n6cnc7cc(C)c(C)cc76)O[C@@H]1CO)[C@H]5CC(N)=O)[C@@](C)(CC(N)=O)[C@@H]4CCC(N)=O)[C@@](C)(CC(N)=O)[C@@H]3CCC(N)=O)C(C)(C)[C@@H]2CCC(N)=O.[C-]#N.[Co+3] | inactive: 88%
18 | CN1CCCCC1COC(=O)C1(O)c2ccccc2CCc2ccccc21 (stereo not given) | inactive: 92.9%
19 | COc1ccccc1OP(C)(=O)Nc1c(C)cccc1C (stereo not given) | inactive: 99.5%
20 | CP(=O)(Nc1ccc(SC(F)(F)F)cc1)Oc1ccccc1 (stereo not given) | inactive: 107%
21 | CCCOc1ccc(NP(C)(=O)Oc2ccc(Cl)cc2)cc1 (stereo not given) | inactive: 101%
22 | CP(=S)(Nn1cnnc1)Oc1ccccc1 (stereo not given) | inactive: 103%
23 | COc1ccccc1OP(C)(=O)Nc1ccccc1 (stereo not given) | inactive: 95.6%

Row | Compound | GFP response vs DMSO
24 | CP(=O)(Nc1ccccc1Br)Oc1ccccc1 (stereo not given) | inactive: 103%
25 | CP(=O)(Oc1ccccc1)OC(c1ccccc1)C(F)(F)F (stereo not given) | inactive: 99.2%
26 | CP(=O)(Nc1ccc(SC(F)(F)F)cc1)Oc1ccc(Cl)cc1 (stereo not given) | inactive: 103%
27 | Cc1cccc(C)c1OP(C)(=O)Nc1ccc(SC(F)(F)F)cc1 (stereo not given) | inactive: 97.6%
28 | Cc1cc(C)cc(OP(C)(=O)Nc2ccc(SC(F)(F)F)cc2)c1 (stereo not given) | inactive: 111%
29 | CCc1ccc(OP(C)(=O)N2CCN(c3ccc([N+](=O)[O-])cc3)CC2)cc1 (stereo not given) | inactive: 89.5%
30 | CP(=O)(NC(=O)Nc1ccccc1)Oc1ccccc1 (stereo not given) | inactive: 101%
31 | CCOP(C)(=S)SCC(=O)NC(C)C(=O)O (stereo not given) | inactive: 104%
32 | O=[N+]([O-])c1cc([N+](=O)[O-])c(O)c([N+](=O)[O-])c1.c1ccc(Oc2ccncc2)cc1 | inactive: 102%
33 | CCOC(=O)c1ccc(NP(C)(=O)Oc2ccc(OC)cc2)cc1 (stereo not given) | inactive: 93.9%
34 | CP(=O)(Nc1ccccn1)Oc1ccc(Cl)cc1 (stereo not given) | inactive: 92.6%
35 | CCN(CC)CCCOC(=O)C(O)(c1ccccc1)c1ccccc1 | inactive: 101%
36 | O=[N+]([O-])c1cc([N+](=O)[O-])c(Nc2cccnc2)c([N+](=O)[O-])c1 | inactive: 88.8%
37 | Cc1cccc(C)c1OP(C)(N)=O (stereo not given) | inactive: 100%
38 | CC(C)(C)c1ccc(OP(C)(=O)Nc2ccc(SC(F)(F)F)cc2)cc1 (stereo not given) | inactive: 101%
39 | O=[N+]([O-])c1ccc2c(c1)C=Nc1ccccc1O2 | inactive: 107%
40 | CCOC(=O)c1ccc(NP(C)(=O)Oc2ccccc2)cc1 (stereo not given) | inactive: 105%
41 | Cc1ccc(NP(C)(=O)Oc2ccccc2)c(C)c1 (stereo not given) | inactive: 126%
42 | COc1ccccc1OP(C)(=O)Nc1ccc(C)cc1 (stereo not given) | inactive: 90.3%
43 | COc1ccc(OP(C)(=O)Nc2cccc(F)c2)cc1 (stereo not given) | inactive: 99.2%
44 | COc1ccccc1OP(C)(=O)Nc1cc(Cl)ccc1C (stereo not given) | inactive: 110%
45 | Cc1cc(C)cc(OP(C)(N)=O)c1 (stereo not given) | inactive: 103%
